Assay results published in patent publication US20260125400A1, “TYK2 DEGRADERS AND USES THEREOF” (Kymera Therapeutics, Inc., priority 2023, published 2026).
Read-outs that look alike come from different tables or passages of the source.

Amino acid sequences for entries named in this document (tags omitted).
UniProt P29597, whole entry: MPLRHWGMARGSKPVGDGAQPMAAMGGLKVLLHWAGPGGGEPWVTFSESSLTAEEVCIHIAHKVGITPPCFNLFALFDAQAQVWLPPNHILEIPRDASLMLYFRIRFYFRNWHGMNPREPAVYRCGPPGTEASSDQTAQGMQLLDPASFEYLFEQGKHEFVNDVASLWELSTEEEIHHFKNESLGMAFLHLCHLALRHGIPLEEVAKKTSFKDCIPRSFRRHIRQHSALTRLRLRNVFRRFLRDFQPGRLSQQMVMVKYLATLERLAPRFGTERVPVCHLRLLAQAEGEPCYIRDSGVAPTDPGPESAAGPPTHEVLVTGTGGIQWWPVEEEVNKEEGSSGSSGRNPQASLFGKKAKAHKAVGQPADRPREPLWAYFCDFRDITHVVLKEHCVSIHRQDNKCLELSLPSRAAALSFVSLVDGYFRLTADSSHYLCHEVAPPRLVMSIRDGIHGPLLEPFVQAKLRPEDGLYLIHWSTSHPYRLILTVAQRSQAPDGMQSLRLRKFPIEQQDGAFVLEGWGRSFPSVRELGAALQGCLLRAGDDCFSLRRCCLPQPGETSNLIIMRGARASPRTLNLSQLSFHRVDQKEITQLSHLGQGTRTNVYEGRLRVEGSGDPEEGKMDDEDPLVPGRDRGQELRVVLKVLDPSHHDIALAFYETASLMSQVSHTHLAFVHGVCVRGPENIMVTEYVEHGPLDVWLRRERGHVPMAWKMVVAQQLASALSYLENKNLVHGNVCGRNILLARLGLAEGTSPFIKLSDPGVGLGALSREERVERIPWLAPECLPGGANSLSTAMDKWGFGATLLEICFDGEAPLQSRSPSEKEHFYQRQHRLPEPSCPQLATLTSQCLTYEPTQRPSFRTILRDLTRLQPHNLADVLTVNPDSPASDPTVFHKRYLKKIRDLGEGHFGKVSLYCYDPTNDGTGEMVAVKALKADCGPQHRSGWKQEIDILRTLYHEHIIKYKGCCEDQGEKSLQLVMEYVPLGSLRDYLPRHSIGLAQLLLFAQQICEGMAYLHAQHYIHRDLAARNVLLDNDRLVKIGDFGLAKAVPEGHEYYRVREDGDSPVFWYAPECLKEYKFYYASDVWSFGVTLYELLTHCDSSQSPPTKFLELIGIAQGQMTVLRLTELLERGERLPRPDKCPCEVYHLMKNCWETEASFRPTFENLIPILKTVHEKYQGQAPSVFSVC

Biological target: TYK2 (Homo sapiens, UniProt P29597)
Experiment: TYK2 MSD degradation in OCI-LY10 cells
Method: Example 7. TYK2 MSD Degradation
Degradation of TYK2 in cells was quantitatively measured using Meso Scale Discovery (MSD) technology. OCI-LY10 cells were seeded in 96-well plates with a density of 0.4 million cells per well in 100 μl fresh media. Compounds were then added to the assay plates with a final top concentration of 1 to 10 μM in a 1:3 dilution series with total of 9 doses. The assay plates were then incubated for 4 to 24 hours at 37° C. under […]. The assay plates were then centrifuged for 5 minutes, and the cell pellets were treated with 100 μl/well RIPA lysis buffer (Boston Bioproducts, BP-115D) with protease and phosphatase inhibitors (Roche, 05892791001 and 04906837001). To prepare MSD assay plates (MSD, L15XA), the plates were coated with the capture antibody (Santa Cruz Biotechnology, SC-5271) in PBS, at 40 μl/well. The plates were then incubated overnight at 4° C., washed 3 times with 150 μl/well TBST buffer (Cell Signaling Technology, 9997S) and blocked with 150 μl/well blocking buffer (MSD, R93BA-4). Cell lysates were then added to MSD assay plates and the plates were incubated at room temperature for 1 hour. The plates were then washed 3 times with 150 μl/well TBST buffer and 25 μl/well primary detection antibody (Cell Signaling Technology, #9312). The assay plates were then incubated at room temperature for 1 hour, washed 3 times with 150 μl/well TBST buffer, and 25 μl/well secondary detection antibody, SULFO-TAG anti-rabbit antibody (MSD, R32AB-1) were added. The assay plates were then incubated at room temperature for 1 hour, washed 3 times with 150 μl/well TB ST buffer, and 150 μl/well MSD reading buffer (MSD, R92TC-2) were added. The plates were then analyzed by an MSD reader. The data was analyzed by GraphPad Prism and the dose dependent TYK2 degradation was fit using the four-parameter inhibitor vs. response nonlinear regression.
The letter codes for TYK2 DC50 include: A (<1 nM); B (i to <10 nM); C (10 to 100 nM); D (>100 nM); and E (not tested). The letter codes for TYK2 Dmax % include: A (>90%); B (90 to >75%); C (75 to 50%); D (<50%); and E (not tested).

[1] = TYK2 degradation in OCI-LY10 cells, 4 to 24 hours incubation
[2] = read-out: TYK2 MSD OCI-LY10 Rel-DC50, TYK2 degradation in OCI-LY10 cells, 4 to 24 hours incubation
[3] = OCI-LY10 cells, 4 to 24 hours incubation
[4] = read-out: TYK2 MSD OCI-LY10 Rel-DC50, OCI-LY10 cells, 4 to 24 hours incubation
[5] = OCI-LY10 cells, incubated 4 to 24 hours
[6] = read-out: TYK2 MSD OCI-LY10 Rel-DC50, OCI-LY10 cells, incubated 4 to 24 hours

Structure (SMILES) | TYK2 MSD OCI-LY10 Dmax % [1] | DC50 [2] | also measured
CNc1cc(N2CCc3c(CN4CC[C@@H](N5CCC6(CC5)CN(C(=O)c5cc(N7CCC(=O)NC7=O)c(Cl)c(C)n5)C6)C(F)(F)C4)cccc32)nn2c(C(=O)N[C@@H]3CC[C@H]3OC)cnc12 | A (A (>90%)) | < 1 nM | 
CNc1cc(N2CCc3c(N4CCC[C@@H](CN5CCN(c6ccc7c(c6)n(C)c(=O)n7C6CCC(=O)NC6=O)CC5)C4)cccc32)nn2c(C(=O)NC3CC3)cnc12 (some centres unmarked) | D (D (<50%)) | > 100 nM | 
CNc1cc(N2CCc3c(CN4CCC(CN5CCC6(CC5)CCN(C(=O)c5cc(C)c(Cl)c(N7CCC(=O)NC7=O)c5)CC6)C(F)(F)C4)cc(F)cc32)nn2c(C(=O)N[C@@H]3CC[C@H]3OC)cnc12 (some centres unmarked) | B (B (90 to >75%)) | < 1 nM | 
CNc1cc(N2CCc3c(N4CCN(CCN5CCN(C(=O)c6ccc(Cl)c(N7CCC(=O)NC7=O)c6)CC5)CC4)cccc32)nn2c(C(=O)NC3CC3F)cnc12 (centres unmarked) | D (D (<50%)) | > 100 nM | 
CO[C@@]1(c2cc(C)cc(-c3cn(C4CCN(CC5CCN(c6cccc7c6n(C)c(=O)n7C6CCC(=O)NC6=O)CC5)CC4)c4cnc(NC(C)=O)cc34)n2)CCOC1 (some centres unmarked) | A (A (>90%)) | < 1 nM | 
CNc1cc(N2CCc3c(-c4cc(CN5CCN(CC#Cc6cccc(N7CCC(=O)NC7=O)c6C)CC5)ccn4)cccc32)nn2c(C(=O)N[C@@H]3C[C@@H]3F)cnc12 | D (D (<50%)) | > 100 nM | 
CO[C@@]1(c2cc(C)cc(-c3cn(C4CCN(C(=O)c5ccc(Cl)c(N6CCC(=O)NC6=O)c5)CC4)c4cnc(NC(C)=O)cc34)n2)CCOC1 | D (D (<50%)) | > 100 nM | 
CNc1cc(N2CCc3c(-c4ncc(CN5CC6(CCN(C(=O)c7cc(Cl)c(C)c(N8CCC(=O)NC8=O)c7)CC6(F)F)C5)cc4F)cccc32)nn2c(C(=O)N[C@@H]3CC[C@H]3OC)cnc12 | A (A (>90%)) | < 1 nM | 
CO[C@@]1(c2cc(C)cc(-c3cn(C4CCN(CC5CCN(c6ccc(Cl)c(C7CCC(=O)NC7=O)c6)CC5)CC4)c4cnc(NC(C)=O)cc34)n2)CCOC1 (some centres unmarked) | D (D (<50%)) | > 100 nM | 
CNc1cc(N2CCc3c(-c4ccc(CN5CC6(CCN(C(=O)c7ccc(Cl)c(N8CCC(=O)NC8=O)c7)CC6(F)F)C5)cn4)cccc32)nn2c(C(=O)N[C@@H]3CC[C@H]3OC)cnc12 |  |  | TYK2 MSD OCI-LY10 Dmax % [3]: A (A (>90%)); DC50 [4]: < 1 nM
CNc1cc(N2CCc3c(-c4cc(CN5CCN(c6ccc7c(c6)n(C)c(=O)n7C6CCC(=O)NC6=O)CC5)ccn4)cccc32)nn2c(C(=O)N[C@@H]3CC[C@H]3OC)cnc12 (some centres unmarked) | B (B (90 to >75%)) | < 1 nM | 
CNc1cc(N2CCc3c(C4CCN(CC5CN(c6ccc7c(c6)n(C)c(=O)n7C6CCC(=O)NC6=O)C5)CC4)cccc32)nn2c(C(=O)NC3CC3)cnc12 (centres unmarked) | C (C (75 to 50%)) | < 1 nM | 
CO[C@@]1(c2cc(C)cc(-c3cn(C4CCN(CC5CCN(c6ccc(C7CCC(=O)NC7=O)c(Cl)c6)CC5)CC4)c4cnc(NC(C)=O)cc34)n2)CCOC1 (some centres unmarked) | B (B (90 to >75%)) | < 10 nM | 
CNc1cc(N2CCc3c(-c4ncc(CN5CC6(CCN(C(=O)c7cc(C)c(Cl)c(N8CCC(=O)NC8=O)c7)CC6(F)F)C5)cc4F)cc(F)cc32)nn2c(C(=O)N[C@@H]3CC[C@H]3OC)cnc12 | A (A (>90%)) | < 1 nM | 
CO[C@@]1(c2cc(C)cc(-c3cn(CCC4CCN(CC5CCN(c6ccc(C7CCC(=O)NC7=O)c(Cl)c6)CC5)CC4)c4cnc(NC(C)=O)cc34)n2)CCOC1 (some centres unmarked) | D (D (<50%)) | < 10 nM | 
CNc1cc(N2CCc3c(-c4ccc(CN5CCC(N6CCC(N(C)c7ccc(Cl)c(N8CCC(=O)NC8=O)c7)CC6)CC5)cn4)cccc32)nn2c(C(=O)N[C@@H]3CC[C@H]3OC)cnc12 | A (A (>90%)) | < 1 nM | 
CNc1cc(N2CCc3c(CN4CC5(CCN(C6CCN(C(=O)c7cc(C)c(Cl)c(N8CCC(=O)NC8=O)c7)CC6)CC5(F)F)C4)cccc32)nn2c(C(=O)N[C@@H]3CC[C@H]3OC)cnc12 |  |  | TYK2 MSD OCI-LY10 Dmax % [5]: B (B (90 to >75%)); DC50 [6]: < 1 nM

Structure (SMILES) | TYK2 MSD OCI-LY10 Dmax % [1] | DC50 [2] | also measured
CO[C@@]1(c2cc(C)cc(-c3cn(C4CCN(CCC5CCN(c6ccc(C7CCC(=O)NC7=O)c(Cl)c6)CC5)CC4)c4cnc(NC(C)=O)cc34)n2)CCOC1 (some centres unmarked) | D (D (<50%)) | 10 to 100 nM | 
CNc1cc(N2CCc3c(-c4ccc(CN5CCC6(CCN(C(=O)c7cc(N8CCC(=O)NC8=O)c(C)cc7F)CC6)C(F)(F)C5)cn4)cccc32)nn2c(C(=O)N[C@@H]3C[C@@H]3F)cnc12 |  |  | TYK2 MSD OCI-LY10 Dmax % [3]: B (B (90 to >75%)); DC50 [4]: < 10 nM
CNc1cc(N2CCc3c(-c4cnc(CN5CCC6(CCN(C(=O)c7cc(N8CCC(=O)NC8=O)c(C)cc7F)CC6)C(F)(F)C5)cn4)cccc32)nn2c(C(=O)N[C@@H]3CC[C@H]3OC)cnc12 | A (A (>90%)) | < 1 nM | 
CNc1cc(N2CCc3c(CN4CC[C@@H](CN5CCC6(CC5)CCN(C(=O)c5cc(Cl)c(C)c(N7CCC(=O)NC7=O)c5)CC6)C(F)(F)C4)cccc32)nn2c(C(=O)N[C@@H]3CC[C@H]3OC)cnc12 | A (A (>90%)) | < 1 nM | 
CCNC(=O)c1nnc(Nc2ccc(CN3CCC4(CN(c5cccc6c5n(C)c(=O)n6C5CCC(=O)NC5=O)C4)C(F)(F)C3)cn2)cc1Nc1cccc(F)c1OC (centres unmarked) | D (D (<50%)) | > 100 nM | 
CNc1cc(N2CCc3c(-c4ncc(CN5CCC6(CCN(C(=O)c7cc(C)c(Cl)c(N8CCC(=O)NC8=O)c7)CC6)C(F)(F)C5)cn4)cccc32)nn2c(C(=O)N[C@@H]3CC[C@H]3OC)cnc12 | A (A (>90%)) | < 1 nM | 
CNc1cc(N2CCc3c(CN4CCC5(CN(C6CCN(C(=O)c7cc(C)c(Cl)c(N8CCC(=O)NC8=O)c7)CC6)C5)C(F)(F)C4)cccc32)nn2c(C(=O)N[C@@H]3CC[C@H]3OC)cnc12 |  |  | TYK2 MSD OCI-LY10 Dmax % [5]: B (B (90 to >75%)); DC50 [6]: < 1 nM
CNc1cc(N2CCc3c(-c4ccc(CN5CCC6(CCN(C(=O)c7ccc(OC)c(N8CCC(=O)NC8=O)c7)CC6)C(F)(F)C5)cn4)cccc32)nn2c(C(=O)N[C@@H]3C[C@@H]3F)cnc12 |  |  | TYK2 MSD OCI-LY10 Dmax % [3]: B (B (90 to >75%)); DC50 [4]: < 10 nM
CNc1cc(N2CCc3c(N4CCN(CC5CC6(CCN(Cc7ccc(Cl)c(C8CCC(=O)NC8=O)c7)CC6)C5)CC4)cccc32)nn2c(C(=O)N[C@@H]3C[C@@H]3F)cnc12 (some centres unmarked) |  |  | TYK2 MSD OCI-LY10 Dmax % [3]: D (D (<50%)); DC50 [4]: > 100 nM
CO[C@@]1(c2cc(C)cc(-c3cn(C4CCN(CC5CCN(Cc6ccc(Cl)c(C7CCC(=O)NC7=O)c6)CC5)CC4)c4cnc(NC(C)=O)cc34)n2)CCOC1 (some centres unmarked) | D (D (<50%)) | > 100 nM | 
CNc1cc(N2CCc3c(CC4CCN(C5CCN(C6CCN(C(=O)c7ccc(Cl)c(N8CCC(=O)NC8=O)c7)CC6)CC5(F)F)CC4)cccc32)nn2c(C(=O)N[C@@H]3C[C@@H]3F)cnc12 (some centres unmarked) |  |  | TYK2 MSD OCI-LY10 Dmax % [3]: B (B (90 to >75%)); DC50 [4]: < 10 nM
CNc1cc(N2CCc3c(CN4CCC(N5CCC6(CC5)CN(C(=O)c5cc(C)c(Cl)c(N7CCC(=O)NC7=O)c5)C6)C(F)(F)C4)cccc32)nn2c(C(=O)N[C@@H]3CC[C@H]3OC)cnc12 (some centres unmarked) | A (A (>90%)) | < 1 nM | 
CO[C@@]1(c2cc(C)cc(-c3cn(CC4CCN(C(=O)CCCCc5ccc6c(c5)n(C)c(=O)n6C5CCC(=O)NC5=O)CC4)c4cnc(NC(C)=O)cc34)n2)CCOC1 (some centres unmarked) | D (D (<50%)) | > 100 nM | 
CNc1cc(N2CC3(CCN(C4CCN(c5ccc6c(c5)n(C)c(=O)n6C5CCC(=O)NC5=O)CC4)CC3)c3ccccc32)nn2c(C(=O)NC3CC3)cnc12 (centres unmarked) | D (D (<50%)) | > 100 nM | 
CNc1cc(N2CCc3c(-c4ncc(CN5CCC6(CCN(C(=O)c7cc(Cl)c(C)c(N8CCC(=O)NC8=O)c7)CC6)C(F)(F)C5)cc4F)cccc32)nn2c(C(=O)N[C@@H]3CC[C@H]3OC)cnc12 | A (A (>90%)) | < 10 nM | 
CNc1cc(N2CC3(CCN(CCC4CCN(c5ccc6c(c5)n(C)c(=O)n6C5CCC(=O)NC5=O)CC4)CC3)c3ccccc32)nn2c(C(=O)NC3CC3)cnc12 (centres unmarked) | D (D (<50%)) | > 100 nM | 
CNc1cc(N2CCc3c(CN4CC[C@@H](N5CCC(CC6CCN(C(=O)c7cc(N8CCC(=O)NC8=O)c(Cl)c(C)n7)CC6)CC5)C(F)(F)C4)cccc32)nn2c(C(=O)N[C@@H]3CC[C@H]3OC)cnc12 | A (A (>90%)) | < 10 nM | 
